{"source": "paper PMC8836279", "about": "“The T850D Phosphomimetic Mutation in the Androgen Receptor Ligand Binding Domain Enhances Recruitment at Activation Function 2” (International Journal of Molecular Sciences, 2022)", "key": {"AR WT [1]": {"target": "T1, AR WT (Homo sapiens, UniProt P10275)", "test": "Whole-cell competition ligand binding assay in COS-7 cells", "conditions": "mean ± SE, tested as the radiolabelled form"}, "AR T850D [2]": {"target": "T2, AR T850D (Homo sapiens, UniProt P10275, T851D)", "test": "Whole-cell competition ligand binding assay in COS-7 cells", "conditions": "tested as the radiolabelled form"}, "AR WT [3]": {"target": "T1, AR WT", "test": "Whole-cell ligand dissociation assay in COS-7 cells", "conditions": "5 nM radioligand, then 10,000-fold excess of R1881, tested as the radiolabelled form"}, "AR T850D [4]": {"target": "T2, AR T850D", "test": "Whole-cell ligand dissociation assay in COS-7 cells", "conditions": "5 nM radioligand, then 10,000-fold excess of R1881, tested as the radiolabelled form"}}, "note": "Values joined by “and” are separate entries in the source; they are usually repeats but may differ in a detail not shown here. Equal values may be shown once.", "data": [{"compound": "C[C@]1(O)CC[C@H]2[C@@H]3CCC4=CC(=O)CCC4=C3C=C[C@@]21C", "values": [{"measurement": "Bmax", "setting": "AR WT [1]", "result": "11,905 (±488) cpm"}, {"measurement": "Bmax", "setting": "AR T850D [2]; mean ± SE", "result": "17,849 (±959) cpm"}, {"measurement": "increase of maximal binding, AR T850D vs. AR WT", "setting": "AR T850D [2]", "result": "approximately 50%"}, {"measurement": "dissociation half-time t1/2", "setting": "AR WT [3]", "result": "126 min and 126.4 (±21.4) min"}, {"measurement": "dissociation half-time t1/2", "setting": "AR T850D [4]", "result": "121 min and 120.8 (±21.7) min"}]}]}
